Earlier results, collected in article PMC3141299 (Macromolecular bioscience, 2010).

Conditions: treated for 1 h in gastric fluid; ref 2 (Yamagata et al.)

For insulin, the “insulin remaining intact / preserved after treatment in gastric fluid” value is listed as 20%.
